Results: paper PMC7821884, “BRAF inhibition protects against hearing loss in mice” (Science Advances, 2020)

How the values were obtained:
[1] = tested on: P42 FVB mice; test: Cisplatin-induced hearing loss in adult mice (ABR, OHC counts, pERK)
[2] = tested on: P42 FVB mice; test: Noise-induced hearing loss in adult mice (ABR, DPOAE, Ctbp2 puncta, pERK)

Question: With `CC(C)(C)c1nc(-c2cccc(NS(=O)(=O)c3c(F)cccc3F)c2F)c(-c2ccnc(N)n2)s1` [dabrafenib] as the molecule, how does the “average reduction of ABR threshold shift” value ([1]; 100 mg/kg oral gavage 45 min before and 24, 48 hours after cisplatin 30 mg/kg i.p., 16 and 32 kHz, day 21) read?
Answer: Its value is 14.9 dB.

Question: What about the “threshold shift and body weight, drug alone” value ([1]; 100 mg/kg oral, no cisplatin) of the same molecule?
Answer: The value was “no significant threshold shift or change in body weight”.

Question: And the “mean reduction of ABR threshold shift, treatment after noise” value ([2]; 60 mg/kg twice daily oral at 24, 48, 72 hours after noise, 16 kHz)?
Answer: Its value is 21.0 dB.

Question: What about the “average protection, ABR threshold shift” value ([2]; 100 mg/kg oral 45 min before and 24, 48 hours after noise (100 dB, 8-16 kHz, 2 hours), three frequencies, day 14) of the same molecule?
Answer: The value was 16.8 dB.

Question: What about the “DPOAE threshold shifts at 8 and 16 kHz” value ([2]; 100 mg/kg pretreatment) of the same molecule?
Answer: The value was “significant protection”.

Question: And the “threshold shift, body weight, behavior without noise exposure” value ([2]; drug-treated mice, no noise)?
Answer: The value was “no significant threshold shift, change in body weight, or general behavior”.
